{"sequences": {"note": "Sequences of proteins named here, by UniProt entry; tags and fusion partners are left off. A change or cut given only in a name is not applied to a line headed by its entry.", "UniProt P53779": "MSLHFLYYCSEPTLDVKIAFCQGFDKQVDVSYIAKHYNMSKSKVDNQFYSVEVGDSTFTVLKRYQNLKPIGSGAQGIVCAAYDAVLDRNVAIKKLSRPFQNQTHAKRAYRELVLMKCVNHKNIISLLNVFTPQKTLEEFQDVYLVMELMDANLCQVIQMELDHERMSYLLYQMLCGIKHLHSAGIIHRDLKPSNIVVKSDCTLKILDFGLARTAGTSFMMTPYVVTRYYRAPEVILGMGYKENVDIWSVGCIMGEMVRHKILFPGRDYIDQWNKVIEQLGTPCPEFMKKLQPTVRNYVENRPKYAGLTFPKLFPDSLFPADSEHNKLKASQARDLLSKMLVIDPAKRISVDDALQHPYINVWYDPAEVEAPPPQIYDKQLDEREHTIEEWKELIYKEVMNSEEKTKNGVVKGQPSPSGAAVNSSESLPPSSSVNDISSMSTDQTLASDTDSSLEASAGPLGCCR"}, "source": "patent US11740249B2", "about": "“Recognition of cellular target binding by a bioactive agent using intracellular bioluminescence resonance energy transfer” (Promega Corporation, priority 2012, dated 2023)", "molecular_target": "JNk3 NANOLUC fusion (Homo sapiens, UniProt P53779)", "format": "binding", "details": "cell-free; serially-diluted BIRB796, BIRB-TOM tracer at 2 uM"}
{"molecule": "Cc1ccc(-n2nc(C(C)(C)C)cc2NC(=O)Nc2ccc(OCCN3CCOCC3)c3ccccc23)cc1", "note": "[BIRB-796]", "values": [{"measurement": "affinity (competitive displacement of BIRB-TOM tracer)", "result": "lower affinity"}]}
